1 substance from US11311475B2, “Skin care compositions containing peptide compound and aphanothece sacrum exopolysaccharide extract” (The Procter & Gamble Company, priority 2019, dated 2022) can be followed below.

This data set can be described thus: Franz diffusion cell skin penetration assay. It is filed as in vitro ADME, human. As to conditions: for PKEK Skin Penetration: Surface Residual / PKEK Skin Penetration: Dermis / PKEK Skin Penetration: Epidermis / PKEK Skin Penetration: Total Penetration / PKEK Skin Penetration: Receptor: PKEK 40 ppm; for PKEK Skin Penetration: Surface Residual: 3H-spiked, 24 h after topical dose on human skin; for PKEK Skin Penetration: Total Penetration: epidermis+dermis+receptor; for PKEK Skin Penetration: Receptor: receptor solution (transdermal). How it is done: The method is described. The skin penetration of pal-KT (5 ppm) and PKEK [SEQ ID NO: 2] (40 ppm) is assessed using the Franz diffusion cell assay (4, T. J. Franz, J. Invest. Dermatol. 64: 190-195, 1975; T. J. Franz, et al., Skin Pharmacol. Physiol. 22: 276-286, 2009). The peptides are formulated in a skin care silicone-in-water (SWF) formulation with or without 10 wt % SACRAN. The formulations are spiked with ^14C-pal-KT or ^3H-PKEK. Twenty-four hours after topically dosed on human skin, residual product is removed from the skin surface, the epidermal and dermal layers were separated, and receptor solutions (transdermal) are collected.

[1] abbreviates: SWF + 10 wt % SACRAN versus SWF, 24 h, human skin.
Setting [2] is: SWF formulation without SACRAN (control), 24 h.

Take Proline-Lysine-Glycine-Lysine [PKEK]: under setting [1], the “amount recovered from the surface of the skin with SACRAN versus without (in words)” value is “decrease” and the “effect of addition of SACRAN on skin penetration (in words)” value is on record as “numerical increase”. Further, the “PKEK Skin Penetration: Surface Residual” value (SWF + 10 wt % SACRAN) is 1762 ± 161 ng/cm^2. Besides, where the note is “SWF + 10 wt % SACRAN, 24 h”, the “PKEK Skin Penetration: Dermis” value is given as 49 ± 11 ng/cm^2, the “PKEK Skin Penetration: Epidermis” value is reported as 382 ± 67 ng/cm^2, the “PKEK Skin Penetration: Total Penetration” value came to 770 ± 161 ng/cm^2 and the “PKEK Skin Penetration: Receptor” value amounted to 339 ± 134 ng/cm^2. Further, for the setting “SWF + SACRAN versus SWF, single topical application”, the “increase in skin penetration by addition of SACRAN to SWF” value is listed as 60%. Besides, for the setting “SWF formulation without SACRAN (control)”, the “PKEK Skin Penetration: Surface Residual” value turned out to be 2048 ± 59 ng/cm^2. Besides, under setting [2], the “PKEK Skin Penetration: Dermis” value was 54 ± 10 ng/cm^2, the “PKEK Skin Penetration: Epidermis” value was determined as 258 ± 31 ng/cm^2, the “PKEK Skin Penetration: Total Penetration” value turned out to be 483 ± 59 ng/cm^2 and the “PKEK Skin Penetration: Receptor” value is given as 169 ± 54 ng/cm^2.
